This is an account of results in IntAct's records for PubMed 16352593.

First the molecules themselves.
B1: Myc proto-oncogene protein (Homo sapiens), P01106 (parent)
chain: MDFFRVVENQQPPATMPLNVSFTNRNYDLDYDSVQPYFYCDEEENFYQQQQQSELQPPAPSEDIWKKFELLPTPPLSPSRRSGLCSPSYVAVTPFSLRGDNDGGGGSFSTADQLEMVTELLGGDMVNQSFICDPDDETFIKNIIIQDCMWSGFSAAAKLVSEKLASYQAARKDSGSPNPARGHSVCSTSSLYLQDLSAAASECIDPSVVFPYPLNDSSSPKSCASQDSSAFSPSSDSLLSSTESSPQGSPEPLVLHEETPPTTSSDSEEEQEDEEEIDVVSVEKRQAPGKRSESGSPSAGGHSKPPHSPLVLKRCHVSTHQHNYAAPPSTRKDYPAAKRVKLDSVRVLRQISNNRKCTSPRSSDTEENVKRRTHNVLERQRRNELKRSFFALRDQIPELENNEKAPKVVILKKATAYILSVQAEEQKLISEEDLLRKRREQLKHKLEQLRNSCA
partner: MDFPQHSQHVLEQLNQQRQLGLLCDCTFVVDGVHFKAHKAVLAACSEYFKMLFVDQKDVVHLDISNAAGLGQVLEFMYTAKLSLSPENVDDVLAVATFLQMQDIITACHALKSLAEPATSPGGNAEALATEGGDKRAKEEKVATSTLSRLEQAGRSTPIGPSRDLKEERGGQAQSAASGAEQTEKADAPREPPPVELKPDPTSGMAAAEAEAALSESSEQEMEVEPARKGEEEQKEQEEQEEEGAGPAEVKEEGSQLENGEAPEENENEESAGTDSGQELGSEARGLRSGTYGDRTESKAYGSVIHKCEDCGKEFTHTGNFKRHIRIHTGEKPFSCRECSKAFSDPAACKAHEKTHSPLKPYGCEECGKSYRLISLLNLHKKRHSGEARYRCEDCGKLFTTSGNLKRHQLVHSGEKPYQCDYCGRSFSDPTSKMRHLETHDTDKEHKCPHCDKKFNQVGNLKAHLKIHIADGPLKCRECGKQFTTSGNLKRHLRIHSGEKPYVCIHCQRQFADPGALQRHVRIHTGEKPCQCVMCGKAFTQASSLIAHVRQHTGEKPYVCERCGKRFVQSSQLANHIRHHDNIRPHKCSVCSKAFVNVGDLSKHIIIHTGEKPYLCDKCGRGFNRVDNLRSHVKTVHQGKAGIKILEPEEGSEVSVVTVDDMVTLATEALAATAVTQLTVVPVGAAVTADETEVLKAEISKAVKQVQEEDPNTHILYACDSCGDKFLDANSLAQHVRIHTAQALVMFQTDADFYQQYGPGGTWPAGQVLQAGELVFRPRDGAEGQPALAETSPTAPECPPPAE

This test covers variants of B1. Particulars: with zbt17_human ZBTB17, Q13105.
For V409D, the “effect of a mutation on the interaction” value is “decreasing interaction”.
